Source: PubChem (National Center for Advancing Translational Sciences (NCATS))
Nrf2 block: Nrf2 pathway inhibition; actives 2.1% (n = 360,000); Potency, µM (series often up to 46 µM), inactives show at the top dose activity change, negative = inhibition, most hits filed as inhibitors; AID 504444; A549 ARE-Fluc reporter, luciferase luminescence, 18-24 h; note: potency is the fitted concentration of half-maximal effect; % is set by controls: 0 for no effect and ±100 for the full control effect; nearly all actives have a fitted effect of over 60% in size
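Nrf2 activity is the BugLite luminescence, read 15 min after reagent at room temperature, following CellTiter-Fluor cytotoxicity readout (30 min, 37C). Compound titrations were applied for 18-24 h to 5000 A549 ARE_Fluc cells/well in 5% FBS OPTI-MEM.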
Glioma ERSR ind: inducers of ER stress response in human glioma cells. U87-MG GRP78 promoter luciferase reporter, 16 h. Potency, µM, for inactives: at the highest dose activation, hits mostly activators. actives 0.02% (n = 420,000). AID 602332; note: potency is the fitted concentration of half-maximal effect; series mostly up to about 76 µM; % of control where 0% means no effect; nearly all actives have a fitted effect of over 35% in size
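Stably transfected U87-MG human glioma cells carrying a GRP78-based luminescent sensor were seeded at 1000 cells/well, pin-dosed with compounds and incubated 16 h. Luciferase reagent was then added, and end-point luminescence was read after 10 min at room temperature.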
Mito fusion act: blocks mitochondrial division or promotes mitochondrial fusion; S. cerevisiae fusion-defective mutant growth rescue, CellTiterGlo 48 h; Potency, µM (top dose mostly 46.1 µM), inactives show at the highest dose growth rescue (activation), usual class: activators; actives 0.23% (n = 320,000); note: potency is the fitted concentration of half-maximal effect; % of control where 0% means no effect; nearly all actives have a fitted effect of over 45% in size
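Read-out: ATP-based luminescence (CellTiterGlo, 10 min ambient) reporting growth of fusion-defective ts yeast after 48 hours at 37C on glycerol/ethanol YPEG medium in the presence of compound.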
Nrf2 ARE act: activators of Nrf2 (ARE) signaling. Potency, µM (doses to about 46.1 µM), for inactives: at the highest dose activation, usual class: activators. AREc32 ARE-luciferase reporter (MCF7-derived line), luminescence, 24 h. actives 0.31% (n = 410,000). AID 624171; note: potency is the fitted concentration of half-maximal effect; % of control where 0% means no effect; nearly all actives have a fitted effect of over 65% in size
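Steps: seed AREc32_Fluc cells (1000/well, 5% FBS OPTI-MEM); incubate overnight at 37 deg C; add 23 nL compound; incubate 24 hr; add Steady-Glo; hold 30 min RT; read luminescence.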
A549 viability: kills or reduces viability of A549 cells in Nrf2 counter-screen; actives 0.16% (n = 390,000); Potency, µM (series often up to 46 µM), for inactives: at the top dose activity change, negative = cytotoxicity, most hits filed as inhibitors; A549 ARE-Fluc cells, CellTiter-Fluor viability, 18-24 h; note: potency is the fitted concentration of half-maximal effect; % is set by controls: 0 for no effect and ±100 for the full control effect
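Cytotoxicity counterscreen: CellTiter-Fluor fluorescence was measured in A549 ARE_Fluc cells after 18-24 h of compound exposure in a concentration series. The subsequent BugLite luminescent read reports ARE-luciferase activity.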
miR-21 reporter: raises the signal of a miR-21 reporter; HeLa miR-21 FLuc reporter, luciferase, 48 h; Potency, µM (series often up to 38.3 µM), inactives show top-dose reporter change, positive = more light; 340,000 tested, under 10 active; active = well fitted rising curve with a large enough effect; inconclusive = small, poorly fitted or top-dose-only effect; inactive = no such curve, though single readings can be large or run the other way;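 also: % of control where 0% means no effect; miR-21 action dims this reporter so a rising signal means less miR-21 action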
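HeLa cells stably expressing CMV-driven firefly luciferase with a downstream miR-21 binding sequence, endogenously expressing miR-21, were treated with titrations (up to about 40uM final) for 48 hours at 37 degree Celsius. Luciferase luminescence was read after lysis.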
* = called active by the depositor; u = inconclusive; x = not tested or not shown. The list is not random: actives were taken first. Their share in the collection is about 2.3%. Unless noted, calls come from the whole dose curve; as a rule, active = well fitted curve in the direction sought with a large enough effect; inconclusive = small, poorly fitted or top-dose-only effect, or another doubt; inactive = no such curve, though single readings can be large; an effect the other way counts as inactive or inconclusive.

Letters: A = Nrf2 block; B = Glioma ERSR ind; C = Mito fusion act; D = Nrf2 ARE act; E = A549 viability; F = miR-21 reporter
> COc1cccc(C(=O)N2CCN(Cc3nc(-c4ccoc4)oc3C)CC2)c1
  A: x; B: 1%; C: x; D: 1%; E: x; F: x

> Cc1cccc(NS(=O)(=O)c2ccc(C(=O)NCC(c3ccco3)N3CCCCC3)cc2)c1C (stereo not drawn)
  A: 21µM*; B: -4%; C: -2%; D: 7%; E: -26%; F: x

> O=C(NCC(c1ccco1)N1CCCCC1)c1ccc(NS(=O)(=O)c2ccc(F)cc2)cc1 (stereo not drawn)
  A: 2%; B: -8%; C: 2%; D: 1%; E: -9%; F: 3%

> CCc1nnc(NS(=O)(=O)c2ccc(NC(=O)COc3ccc4ccccc4c3)cc2)s1
  A: 2%; B: -1%; C: -3%; D: 0%; E: 2%; F: -4%

> COC(=O)c1cn(NC(=O)c2cc([N+](=O)[O-])ccc2F)c(=O)c2ccccc12
  A: 5.2µM*; B: -5%; C: -9%; D: 18%; E: -16%; F: 30%

> COC(=O)c1cn(NC(=O)C2CCC(C)CC2)c(=O)c2ccccc12 (stereo not drawn)
  A: 26%; B: -4%; C: 5%; D: 0%; E: -2%; F: -5%

> O=[N+]([O-])c1nn(-c2ccccc2)n(O)c1=NCCc1ccccc1
  A: u; B: -2%; C: 18µM*; D: 8%; E: u; F: -43%

> Cc1ccc(CCN=c2c([N+](=O)[O-])nn(-c3ccccc3)n2O)cc1
  A: 5%; B: 0%; C: 6%; D: 1%; E: -10%; F: -9%

> CCc1cccc(N=c2c([N+](=O)[O-])nn(-c3ccc(Cl)cc3)n2O)c1
  A: -2%; B: 0%; C: 18µM*; D: 6%; E: -6%; F: 1%

> O=[N+]([O-])c1nn(-c2ccccc2)n(O)c1=NC1CCN(Cc2ccccc2)CC1
  A: 12%; B: -2%; C: -1%; D: -1%; E: 18µM*; F: 1%

> CCCCn1c(=N)n(CC(O)COc2ccc(C)cc2)c2ccccc21 (stereo not drawn)
  A: 1%; B: -5%; C: -11%; D: 4%; E: -4%; F: 10%

> COc1ccccc1N1CCN(C2CCCN(Cc3c(F)cccc3F)C2)CC1 (stereo not drawn)
  A: u; B: -3%; C: 0%; D: -1%; E: 4%; F: 1%

> O=C(N/N=C/c1cc([N+](=O)[O-])cc(Br)c1O)C12CC3CCC(CC(C3)C1)C2
  A: 0%; B: -3%; C: 0%; D: 0%; E: -3%; F: -1%

> CCCNC(=S)Nc1ccc(F)cc1F
  A: 12µM*; B: -2%; C: -4%; D: 0%; E: 1%; F: 5%

> C=CCNC(=S)Nc1ccc(Cl)cc1F
  A: -26%; B: -2%; C: -1%; D: 6%; E: -2%; F: -6%

> CCCNC(=S)Nc1ccc(Cl)cc1C
  A: 0%; B: -3%; C: -14%; D: 1%; E: -2%; F: 0%

> C=CCNC(=S)Nc1ccc(Br)cc1F
  A: 23µM*; B: 4%; C: -5%; D: 3%; E: 0%; F: -22%

> Cc1cc(C)nc(Nc2n[nH]c(Cc3ccccc3)n2)n1
  A: x; B: x; C: -1%; D: x; E: x; F: -2%

> COc1ccc(OCc2nnc(SCC(=O)N3CCCc4ccccc43)n2-c2ccc(C)cc2)cc1
  A: 23µM*; B: 3%; C: 23%; D: 2%; E: u; F: 4%

> Cc1ccc(OCc2nnc(SCc3ccc(C#N)cc3)n2-c2ccc(C)cc2)cc1
  A: 18µM*; B: -1%; C: 18%; D: 5%; E: u; F: 3%

> N#Cc1ccc(OCc2nnc(SCC(=O)N3CCCc4ccccc43)n2-c2ccccc2)cc1
  A: -11%; B: -1%; C: 3%; D: 3%; E: 0%; F: 7%

> COc1ccc(NC(=O)CCN2CCN(S(=O)(=O)c3ccc(OC)cc3)CC2)cc1
  A: -11%; B: -2%; C: 3%; D: 1%; E: -1%; F: 3%

> COC(=O)c1[nH]c(C)c(/C(O)=C2\C(=O)C(=O)N(CCN(C)C)C2c2ccc(OC)cc2)c1C (stereo not drawn)
  A: x; B: x; C: -1%; D: x; E: x; F: -2%

> Cc1cc(N)c2ccccc2[n+]1CCCCCCCCCC[n+]1c(C)cc(N)c2ccccc21
  A: x; B: -6%; C: 2.6µM*; D: x; E: x; F: x

> Cc1ccc2ccccc2[n+]1CCCCI
  A: x; B: -3%; C: x; D: x; E: x; F: x

> O=C(COC(=O)c1ccc(Br)o1)Nc1ccc(F)cc1[N+](=O)[O-]
  A: 9%; B: -4%; C: x; D: -1%; E: -4%; F: x

Compound profiles, as listed above. Order of values: Nrf2 block | Glioma ERSR ind | Mito fusion act | Nrf2 ARE act | A549 viability | miR-21 reporter
Cc1ccc(CCN=c2c([N+](=O)[O-])nn(-c3ccccc3)n2O)cc1 in the list: 5% | 0% | 6% | 1% | -10% | -9%
COc1cccc(C(=O)N2CCN(Cc3nc(-c4ccoc4)oc3C)CC2)c1 in the list: x | 1% | x | 1% | x | x
COc1ccccc1N1CCN(C2CCCN(Cc3c(F)cccc3F)C2)CC1 (stereo not drawn) in the list: u | -3% | 0% | -1% | 4% | 1%
CCCNC(=S)Nc1ccc(F)cc1F in the list: 12µM* | -2% | -4% | 0% | 1% | 5%
